Apparent affinities of Ab-14 variants for a coronavirus HR2 peptide

Target: peptide PDVDLGDISGINAS, taken from heptad repeat 2 (HR2) of SARS-CoV-2 spike.

Parent: Ab-14, a human scFv built as VH, a (GGGGS)3 linker, VL. Only the CDRs of the light chain vary.
VH: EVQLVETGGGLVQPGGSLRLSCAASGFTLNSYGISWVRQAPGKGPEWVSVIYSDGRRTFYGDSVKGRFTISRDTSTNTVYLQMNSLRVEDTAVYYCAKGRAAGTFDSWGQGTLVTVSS
VL: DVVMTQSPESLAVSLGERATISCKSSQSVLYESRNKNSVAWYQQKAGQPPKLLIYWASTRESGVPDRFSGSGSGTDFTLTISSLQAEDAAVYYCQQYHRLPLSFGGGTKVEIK

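Phage display of a naive human antibody library on the peptide gave the parent. These sequences belong to a second round, designed from the earlier measurements on random variants of the parent. Group labels follow the data file (Ctrl: baseline library sampled from a position-specific scoring matrix, with some repeated check sequences; Rand: our label for a block that the file lists under HC and that is probably the random mutants of the ten best first-round binders; GP: Gaussian process model; GPLM: also part of the Gaussian process libraries; HC: hill climbing; Gen: genetic algorithm; Gibbs: Gibbs sampling; a sequence that several methods proposed may carry one label only). The assay is AlphaSeq: two haploid yeast populations carry antibody and antigen on their surface. After mating in shaken culture at 30 °C for 16 h, diploids were selected and their barcode pairs sequenced. Scores were corrected for input abundance and mapped to Kd with protein pairs of known affinity run in the same pool. The assay was run in six technical replicates.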

Substitutions are numbered in sequence along the VL above, starting at 1 (not Kabat).
This list holds designs with at most six substitutions.
Values are apparent Kd, the geometric mean of the replicates that gave a signal; lower means stronger binding.
A pair that was not seen in any replicate is written "nd"; this usually means weak binding, but a binder can also be missed.

With S25Q/V29F/W56D/S58N [GP_HC] the result was 350 pM (6 of 6 replicates; controls 0 of 18). The variant S25L/N35M/W56N/E61F [GP_Gen] showed 1.6 nM (6 of 6 replicates; controls 0 of 18). The variant S25L/W56H/A57G [GP_Gen] gave 1.5 nM (6 of 6 replicates; controls 0 of 18). With S25L/Y31V/W56N/S62D [GP_Gen] the result was 410 pM (6 of 6 replicates; controls 1 of 18). The variant S25Y/Q27T/V29E/Y31E/E32L/S62L [GP_Gibbs] showed 26 nM (5 of 6 replicates; controls 1 of 18).

The variant S25L/S26Q/V29E/W56N/T59Q/Q96D [GP_Gen] gave 570 pM (6 of 6 replicates; controls 0 of 18). The variant V29A/L30P/R34A [Ctrl] showed 36 nM (6 of 6 replicates; controls 3 of 18). The variant S25C/Q27P/S38N/W56E [Ctrl] showed 400 pM (6 of 6 replicates; controls 1 of 18). The variant K24H/Q27P/W56N/S58I/R60A/Q95T [Rand] gave 22 nM (1 of 6 replicates; controls 1 of 18). With S25L/Q27W/V29E/W56E/T59Q [GP_Gen] the result was 800 pM (6 of 6 replicates; controls 1 of 18).

The variant S25Y/S28E/V29K/W56D [GP_HC] gave 890 pM (6 of 6 replicates; controls 0 of 18). The variant Q27P/V29S/R99W [Ctrl] showed nd (0 of 6 replicates; controls 0 of 18). The variant S25L/V29Q/L30G/W56H [GP_Gen] gave 3.1 nM (6 of 6 replicates; controls 0 of 18). For Y31G/T59E/Q96A [Ctrl], the assay gave 42 nM (5 of 6 replicates; controls 0 of 18). For S25L/S26E/V29D/S38A/W56N [GP_Gen], the assay gave 2.1 nM (6 of 6 replicates; controls 0 of 18).

The variant S26Y/S28A/Y31E/W56M/Q96A/L102S [Ctrl] gave nd (0 of 6 replicates; controls 1 of 18). With S25I/K36Q/W56G/T59K [Ctrl] the result was 280 pM (6 of 6 replicates; controls 0 of 18). For S25V/S33F/W56E [Ctrl], the assay gave 1.0 nM (6 of 6 replicates; controls 0 of 18). For S26E/V29E/L30P/W56N [GP_Gen], the assay gave 740 pM (6 of 6 replicates; controls 0 of 18). The variant S25F/S26Q/W56G [GP_Gen] showed 580 pM (6 of 6 replicates; controls 2 of 18).

The variant S25I/W56F [Ctrl] showed 2.4 nM (6 of 6 replicates; controls 3 of 18). With V29C/W56Q/R99P/S103L [Ctrl] the result was 510 nM (1 of 6 replicates; controls 0 of 18). The variant S25F/V29W/K36S/W56N [GP_Gen] gave 540 pM (6 of 6 replicates; controls 1 of 18). With S25L/V29Y/R34G/W56H [GP_HC] the result was 1.5 nM (6 of 6 replicates; controls 1 of 18). For S25F/S26E/W56N/E61M [GP_Gen], the assay gave 870 pM (6 of 6 replicates; controls 3 of 18).

The variant S25F/N35D/W56N/Q96W [GP_HC] gave 98 nM (5 of 6 replicates; controls 0 of 18). The variant S25L/S26R/V29W/L30N/W56N/Q96I [GP_HC] gave 5.3 nM (6 of 6 replicates; controls 1 of 18). The variant S25Y/Y31E/R99H [Ctrl] gave nd (0 of 6 replicates; controls 0 of 18). The variant S25V/W56S [GP_Gen] gave 890 pM (6 of 6 replicates; controls 1 of 18). With R34I/W56E [Ctrl] the result was 11 nM (6 of 6 replicates; controls 0 of 18).

With V29W/W56E/S62V [GP_HC] the result was 430 pM (6 of 6 replicates; controls 0 of 18). With S25L/V29W/N37M/W56N/T59Q [GP_Gen] the result was 550 pM (6 of 6 replicates; controls 1 of 18). For S25L/S28Q/V29T/W56S/S62E [GP_HC], the assay gave 460 pM (6 of 6 replicates; controls 0 of 18). The variant S25L/S26Q/V29E/W56H [GP_Gen] gave 480 pM (6 of 6 replicates; controls 1 of 18). For S25L/S26E/L30E/Y31M/N35W/W56N [GP_Gibbs], the assay gave 6.5 nM (6 of 6 replicates; controls 0 of 18).

For S103N [Ctrl], the assay gave nd (0 of 6 replicates; controls 0 of 18). For S25F/Q27W/W56D [GP_HC], the assay gave 550 pM (6 of 6 replicates; controls 1 of 18). For L30Q/R34L [Ctrl], the assay gave 5.2 nM (6 of 6 replicates; controls 1 of 18). With S25V/Q27P/V29Y/Y31L/W56E [GP_HC] the result was 390 pM (6 of 6 replicates; controls 0 of 18). The variant S25V/W56N/S62D [GP_Gen] showed 1.4 nM (6 of 6 replicates; controls 1 of 18).

For S25C/S28E/R34N/A40C/H98M [Ctrl], the assay gave 1.7 nM (2 of 6 replicates; controls 0 of 18). The variant Y31F/W56N [Ctrl+GPLM_HC] gave 3.8 nM (12 of 12 replicates; controls 0 of 36). For S26E/H98G/R99N [Ctrl], the assay gave nd (0 of 6 replicates; controls 0 of 18). The variant Q27I/V29L/W56E/S103M [GP_HC] gave 2.2 nM (6 of 6 replicates; controls 0 of 18). With Y31T/N35T/W56E/E61Q/H98V [Ctrl] the result was 1.3 nM (6 of 6 replicates; controls 0 of 18).

The variant S25F/N35T/K36G/W56N [GP_HC] gave 1.0 nM (6 of 6 replicates; controls 3 of 18). With V29E/K36F/N37W/W56G [GP_HC] the result was 6.6 nM (6 of 6 replicates; controls 0 of 18). The variant K24H/S38N/W56N [GP_HC] gave 3.6 nM (6 of 6 replicates; controls 3 of 18).

Extract of 2 entries:

changes,group,apparent Kd,seen in,control signals
S25F/V29W/K36S/W56N,GP_Gen,540 pM,6/6,1/18
S25C/Q27P/S38N/W56E,Ctrl,400 pM,6/6,1/18

A sequence that the file lists under several names has all its replicates pooled.
Values of this round are not directly comparable with the first-round values of the same sequences.
The authors averaged sequences with at least three values out of six and counted those with two or fewer as poor binders.
Empty control strains, which show no peptide, gave a signal in 4% of pairings with all light chain designs; the median was 430 nM and 95% of these signals were weaker than 38 nM. No background was subtracted. The control count says in how many pairings with the empty strains this scFv gave a signal.
Of ten entries with the parent sequence, four were seen in most replicates (averages 2.2 nM to 240 nM), three in one and three in none, so single entries are noisy.

Data: MIT Lincoln Laboratory AlphaSeq set, Li et al. 2023, doi:10.1038/s41467-023-39022-2, as distributed in FLAb.